Measurements: US20250388584A1, “TPK AGONIST AND METHOD FOR TREATING NEURODEGENERATIVE DISEASES USING SAME” (SHANGHAI RAISING PHARMACEUTICAL CO., LTD., priority 2022, published 2025)

Sequences of proteins named here, by UniProt entry; tags and fusion partners are left off. A change or cut given only in a name is not applied to a line headed by its entry.
UniProt Q9H3S4: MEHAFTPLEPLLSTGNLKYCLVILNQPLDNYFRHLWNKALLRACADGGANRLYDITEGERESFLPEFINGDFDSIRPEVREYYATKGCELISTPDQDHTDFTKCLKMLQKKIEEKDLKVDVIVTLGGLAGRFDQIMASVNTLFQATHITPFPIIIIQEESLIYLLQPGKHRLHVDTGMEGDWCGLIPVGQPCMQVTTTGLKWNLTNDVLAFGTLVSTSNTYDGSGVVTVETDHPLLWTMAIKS

Target: TPK enzyme (Homo sapiens (Human), UniProt Q9H3S4)
Experiment: TPK enzyme activity test
Type: biochemical
Conditions: promoting effect on TPK enzyme activity

Cc1ccc2[nH]c3c(=O)n(CCC(=O)NCCN(C)c4cccc5c4CCCC5)cnc3c2c1 [Compound 130, N-(2-(methyl(5,6,7,8-tetrahydronaphthalen-1-yl)amino)ethyl)-3-(8-methyl-4-oxo-4,5-dihydro-3H-pyrimido[5,4-b]indol-3-yl)propanamide]
EC50: 1.36 µM
